{"source": "patent US20150297746A1", "about": "(AstraZeneca / MedImmune, published 2015)", "key": {"[1]": {"biological_target": "T1, CD25 (cell surface, on Karpas299 and SU-DHL-1 cells) (human, UniProt P01589 22-272)", "T1 construct": "whole, on cells; also called surface CD25", "T1 sequence (looked up)": "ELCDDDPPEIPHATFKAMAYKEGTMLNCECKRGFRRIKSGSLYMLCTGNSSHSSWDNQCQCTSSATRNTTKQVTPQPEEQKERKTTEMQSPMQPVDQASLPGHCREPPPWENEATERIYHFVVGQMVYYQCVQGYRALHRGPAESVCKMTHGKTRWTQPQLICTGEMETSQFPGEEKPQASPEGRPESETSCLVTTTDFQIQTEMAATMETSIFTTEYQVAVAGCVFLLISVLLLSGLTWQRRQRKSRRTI", "assay": "flow cytometry on Karpas299 cells (CD25+), average of three experiments", "procedure": "(§1) Karpas299 and SU-DHL-1 anaplastic large cell lymphoma (ALCL)-derived cell lines have been previously reported to express CD25 (2,3). To confirm their expression profile, CD25 surface expression was analyzed by flow cytometry.\n(§2) Surface CD25 expression on Karpas and SU-DHL-1 was determined by flow cytometry. Graphs represent the average of three (Karpas299) or four independent experiments (SU-DHL-1). EC₅₀ values are reported in ng/ml."}, "[2]": {"biological_target": "T1, CD25 (cell surface, on Karpas299 and …)", "assay": "flow cytometry on SU-DHL-1 cells (CD25+), average of four experiments", "procedure": "as §1, §2"}}}
{"binder": "Simulect (antibody, V domains shown, also called Antibody A; anti-CD25 antibody) VH: QLQQSGTVLARPGASVKMSCKASGYSFTRYWMHWIKQRPGQGLEWIGAIYPGNSDTSYNQKFEGKAKLTAVTSASTAYMELSSLTHEDSAVYYCSRDYGYYFDFWGQGTTLTVS VL: QIVSTQSPAIMSASPGEKVTMTCSASSSRSYMQWYQQKPGTSPKRWIYDTSKLASGVPARFSGSGSGTSYSLTISSMEAEDAATYYCHQRSSYTFGGGTKLEIK", "values": [{"measurement": "EC50", "setting": "[1]", "value": 0.0451, "unit": "µg/mL"}, {"measurement": "EC50", "setting": "[2]", "value": 0.0667, "unit": "µg/mL"}]}
